Experimental data as given in PubChem BioAssay AID720711 (National Center for Advancing Translational Sciences (NCATS), 2013).
The list shows a part of the results, in another mix than the full data. Activity calls are given as the source filed them. Calls come from the whole dose curve; as a rule, active = well fitted activation curve with a large enough effect; inconclusive = small, poorly fitted or top-dose-only effect; inactive = no such curve, though single readings can be large or run the other way.

By UniProt entry, the sequences of proteins in these tests, tags left out.
UniProt Q8WZA2, whole entry: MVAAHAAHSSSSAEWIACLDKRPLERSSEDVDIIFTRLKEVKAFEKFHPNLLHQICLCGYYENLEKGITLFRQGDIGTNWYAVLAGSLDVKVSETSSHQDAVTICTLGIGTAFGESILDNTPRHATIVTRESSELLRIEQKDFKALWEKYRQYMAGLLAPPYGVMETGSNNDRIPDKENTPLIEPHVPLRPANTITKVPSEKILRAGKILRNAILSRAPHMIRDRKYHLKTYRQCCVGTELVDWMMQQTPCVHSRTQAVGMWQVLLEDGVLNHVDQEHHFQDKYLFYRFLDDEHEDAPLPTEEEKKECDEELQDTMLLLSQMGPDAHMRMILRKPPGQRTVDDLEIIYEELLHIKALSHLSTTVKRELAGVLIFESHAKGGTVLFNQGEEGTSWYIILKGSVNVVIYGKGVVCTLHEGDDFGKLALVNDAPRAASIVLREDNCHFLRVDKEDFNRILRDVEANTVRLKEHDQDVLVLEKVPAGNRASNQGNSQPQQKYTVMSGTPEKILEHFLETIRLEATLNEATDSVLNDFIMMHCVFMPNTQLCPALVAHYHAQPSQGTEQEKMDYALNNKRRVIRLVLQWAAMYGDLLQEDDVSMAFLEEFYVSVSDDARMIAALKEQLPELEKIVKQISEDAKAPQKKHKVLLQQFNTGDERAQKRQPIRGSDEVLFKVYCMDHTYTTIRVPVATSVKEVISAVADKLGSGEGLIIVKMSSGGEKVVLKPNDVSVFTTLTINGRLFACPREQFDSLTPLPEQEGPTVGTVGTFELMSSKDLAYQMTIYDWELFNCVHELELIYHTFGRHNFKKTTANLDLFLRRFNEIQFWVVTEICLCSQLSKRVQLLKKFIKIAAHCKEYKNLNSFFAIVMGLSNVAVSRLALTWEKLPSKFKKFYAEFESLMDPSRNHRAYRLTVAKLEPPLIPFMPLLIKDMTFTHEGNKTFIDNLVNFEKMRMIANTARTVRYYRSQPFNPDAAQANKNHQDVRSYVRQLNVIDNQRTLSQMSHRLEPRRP

target: Rap guanine nucleotide exchange factor 4 (Homo sapiens) (UniProt Q8WZA2); experiment: qHTS for Agonist of cAMP-regulated guanine nucleotide exchange factor 4 (EPAC2): primary screen; conditions: biochemical qHTS, 100% = 6.5 mM cAMP response; at 154 µM (top of the series); note: nearly all actives have a fitted effect of over 50% in size
From the text: In multi-cellular eukaryotic organisms, the effects of cAMP are transduced by two ubiquitously-expressed intracellular cAMP receptors, the classic protein kinase A/cAMP-dependent protein kinase (PKA/cAPK) and the more recently discovered exchange protein directly activated by cAMP/cAMP-regulated guanine nucleotide exchange factor (EPAC/cAMP-GEF). Both PKA and EPAC are ubiquitously expressed in all tissues, and an increase in intracellular cAMP levels will lead to the activation of both PKA and EPAC. […]
This qHTS will be used to screen the Molecular Libraries Small Molecule Repository (MLSMR) as a concentration-titration series using the NCGC unique quantitative screening (qHTS) platform to find activators for EPAC2. […] Activators are identified by monitoring the change in fluorescence signal as the exchanged free BODIPY-GDP has a reduced fluorescence compared to Rap1-bound BODIPY-GDP. […]
Briefly, three uL of reagents (100 nM EPAC2, 250 nM RAP1B-BODIPY-GDP, 50 uM GDP) were dispensed into a 1536-well Greiner black solid-bottom medium binding assay plate. […] The assay plates were read at 5 minute intervals for 30 minutes in the ViewLux plate reader using 480nm excitation and 540nm emission filters. […]

Row | Compound | activation
1 | CCC(=O)N(c1ccccc1)C1(COC)CCN(CCn2nnn(CC)c2=O)CC1 | inactive: 8.93%
2 | CCC(=O)N(c1ccccc1)C1(COC)CCN(CCc2cccs2)CC1 | inactive: 9.22%
